# Values joined by “and” are separate entries in the source; they are usually repeats but may differ in a detail not shown here. Identical values can stand only once. Only a part is listed here, and it is no random draw. Results filed as inconclusive are left out. Active and inactive are the calls of the source. Unless noted, the call rests on the fitted dose curve; in most records, active means well fitted curve in the direction sought with a large enough effect in the repeat runs; inconclusive means weak or mixed curves; inactive means no such curve, though single readings can be large; an effect the other way counts as inactive or inconclusive.
# Chains of the proteins cited; added tags and fusions are not shown.
# UniProt P04150, whole entry: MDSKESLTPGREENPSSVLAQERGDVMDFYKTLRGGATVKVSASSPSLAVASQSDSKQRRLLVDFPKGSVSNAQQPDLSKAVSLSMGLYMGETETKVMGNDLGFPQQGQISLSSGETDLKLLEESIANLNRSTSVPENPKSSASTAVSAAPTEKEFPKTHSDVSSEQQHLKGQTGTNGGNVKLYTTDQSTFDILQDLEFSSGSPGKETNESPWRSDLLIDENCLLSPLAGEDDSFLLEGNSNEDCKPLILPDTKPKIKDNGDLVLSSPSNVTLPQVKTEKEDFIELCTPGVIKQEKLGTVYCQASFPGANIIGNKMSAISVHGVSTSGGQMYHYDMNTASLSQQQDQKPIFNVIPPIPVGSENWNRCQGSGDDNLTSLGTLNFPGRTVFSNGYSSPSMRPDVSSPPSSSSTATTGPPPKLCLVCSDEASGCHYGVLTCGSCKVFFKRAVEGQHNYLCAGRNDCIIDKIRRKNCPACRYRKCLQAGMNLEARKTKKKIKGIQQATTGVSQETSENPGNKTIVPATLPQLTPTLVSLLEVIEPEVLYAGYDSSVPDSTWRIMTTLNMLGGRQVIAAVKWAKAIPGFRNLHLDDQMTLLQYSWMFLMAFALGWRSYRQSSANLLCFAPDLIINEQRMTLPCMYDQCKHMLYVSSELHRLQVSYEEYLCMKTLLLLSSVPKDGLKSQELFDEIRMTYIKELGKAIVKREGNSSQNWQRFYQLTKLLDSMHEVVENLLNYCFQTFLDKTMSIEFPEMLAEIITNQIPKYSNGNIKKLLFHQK
# UniProt P10275, whole entry: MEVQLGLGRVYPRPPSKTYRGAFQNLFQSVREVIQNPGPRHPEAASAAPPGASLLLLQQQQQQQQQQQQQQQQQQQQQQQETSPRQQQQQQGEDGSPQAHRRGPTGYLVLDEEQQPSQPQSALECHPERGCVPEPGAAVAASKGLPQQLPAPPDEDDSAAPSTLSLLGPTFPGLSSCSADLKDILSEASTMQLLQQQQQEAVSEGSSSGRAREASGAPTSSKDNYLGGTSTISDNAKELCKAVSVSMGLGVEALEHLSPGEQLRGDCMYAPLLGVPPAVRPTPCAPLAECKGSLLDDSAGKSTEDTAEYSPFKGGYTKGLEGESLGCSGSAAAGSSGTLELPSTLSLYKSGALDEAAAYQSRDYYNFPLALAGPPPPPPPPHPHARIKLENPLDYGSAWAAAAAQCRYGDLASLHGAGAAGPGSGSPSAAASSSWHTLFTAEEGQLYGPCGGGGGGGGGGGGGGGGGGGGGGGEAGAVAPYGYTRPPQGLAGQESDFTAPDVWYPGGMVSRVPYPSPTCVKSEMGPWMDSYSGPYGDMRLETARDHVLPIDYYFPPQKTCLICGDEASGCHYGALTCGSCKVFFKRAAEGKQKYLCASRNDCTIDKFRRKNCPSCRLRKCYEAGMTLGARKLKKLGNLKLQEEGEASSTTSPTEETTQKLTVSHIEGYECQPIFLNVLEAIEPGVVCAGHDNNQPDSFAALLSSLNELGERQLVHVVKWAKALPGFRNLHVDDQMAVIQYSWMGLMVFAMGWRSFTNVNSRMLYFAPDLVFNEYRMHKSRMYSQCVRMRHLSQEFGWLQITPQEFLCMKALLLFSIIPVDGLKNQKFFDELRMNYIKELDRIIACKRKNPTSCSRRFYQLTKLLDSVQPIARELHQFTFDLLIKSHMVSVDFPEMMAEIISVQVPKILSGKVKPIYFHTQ
# How the values were obtained:
# [1] = qHTS assay to test for compound auto fluorescence at 460 nm (blue) in HepG2 cell free culture (AID 720685); conditions: Cell-free culture medium, blue autofluorescence 405/460 nm
# Outline: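 Compound (23 nL) or DMSO pinned into cell-free MEM with 10% FBS; blue fluorescence read at 405/460 nm excitation/emission, expressed as auto-fluorescence equivalency to triamterene.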
# [2] = qHTS assay to test for compound auto fluorescence at 535 nm (green) in HepG2 cell free culture (AID 720686); conditions: Cell-free medium, green autofluorescence 485/535 nm
# [3] = qHTS assay to test for compound auto fluorescence at 460 nm (blue) in HepG2 cells (AID 720687); conditions: autofluorescence 405/460 nm, 1 h
# Outline: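 Blue-channel autofluorescence (Ex/Em 405/460 nm, triamterene-equivalent) was measured after 1 hr compound exposure at 37 C, 5% CO2. Cells were HepG2, plated overnight at 37 C in MEM plus 10% FBS.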
# [4] = qHTS assay for identifying genotoxic compounds that show differential cytotoxicity against isogenic chicken DT40 cell lines with known DNA damage response pathways - wild type cell line (AID 743012); conditions: DT40 wild type chicken cells viability, CellTiter-Glo, 40 h; further: nearly all actives have a fitted effect of over 60% in size
# Outline: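 Quantitative HTS on parental DT40 cells: 40 h compound treatment at 37 C/5% CO2, with viability then determined by CellTiter-Glo luminescence. Values serve as the DNA repair-proficient reference for differential cytotoxicity.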
# [5] = qHTS assay for identifying genotoxic compounds that show differential cytotoxicity against isogenic chicken DT40 cell lines with known DNA damage response pathways - Rev3 mutant cell line (AID 743014); conditions: chicken DT40 Rev3-/- viability, CellTiter-Glo, 40 h; series mostly up to 68.4 µM; further: nearly all actives have a fitted effect of over 55% in size; further: potency means the concentration at half of the fitted maximal effect
# [6] = qHTS assay for identifying genotoxic compounds that show differential cytotoxicity against isogenic chicken DT40 cell lines with known DNA damage response pathways - Rad54/Ku70 mutant cell line (AID 743015); conditions: DT40 Rad54/Ku70 mutant viability, CellTiter-Glo, 40 h; series mostly up to 66.8 µM; further: nearly all actives have a fitted effect of over 60% in size; further: potency means the concentration at half of the fitted maximal effect
# [7] = qHTS assay to identify small molecule antagonists of the androgen receptor (AR) signaling pathway - cell viability counter screen (AID 743033; further: nearly all actives have a fitted effect of over 45% in size); conditions: AR-bla HEK293 viability, CellTiter-Glo luminescence, 16 h
# [8] = target: Glucocorticoid receptor (Homo sapiens) (UniProt P04150); assay: qHTS assay to identify small molecule agonists of the glucocorticoid receptor (GR) signaling pathway (AID 720691; active means well fitted activation curve with a large enough effect in the signal ratio in the repeat runs, not every such curve was filed as active; the % refers to the signal ratio); conditions: GR-bla HeLa, beta-lactamase reporter ratio, 18 h
# [9] = target: Glucocorticoid receptor (Homo sapiens) (UniProt P04150); assay: qHTS assay to identify small molecule antagonists of the glucocorticoid receptor (GR) signaling pathway (AID 720692; active means well fitted inhibition curve with a large enough effect in the signal ratio in the repeat runs, not every such curve was filed as active; the % refers to the signal ratio); conditions: GR-bla HeLa, beta-lactamase FRET ratio, dexamethasone-stimulated, 18 h
# [10] = target: Androgen receptor (Homo sapiens) (UniProt P10275); assay: qHTS assay to identify small molecule antagonists of the androgen receptor (AR) signaling pathway (AID 743035; active means well fitted inhibition curve with a large enough effect in the signal ratio in the repeat runs, not every such curve was filed as active; the % refers to the signal ratio); conditions: HEK293 AR-UAS-bla, R1881-stimulated, beta-lactamase FRET, 16 h; at 58.5 µM (top of the series) unless noted
# On the % scale 0 is the no-effect control and ±100 the full control effect.
smiles,measurement,setting,value
Cc1ccc([N+](=O)[O-])cc1[N+](=O)[O-],"fluorescence, % of fluorescent control",[1]; at 91.3 µM (top of the series),inactive: -0.164% and inactive: 0.0227%
same,"fluorescence, % of fluorescein control",[2]; at 91.3 µM (top of the series),inactive: -0.0665% and inactive: 0.0137%
same,"fluorescence, % of fluorescent control",[3]; at 91.3 µM (top of the series),inactive: -0.192% and inactive: 0.007%
same,"activity change, negative = cytotoxicity",[4]; at 68.4 µM (top of the series),inactive: -15.4% and inactive: 5.34%
same,Potency,[5],inactive
same,Potency,[6],inactive
same,"activity change, negative = cytotoxicity",[7]; at 58.5 µM (top of the series),inactive: 0.0754% and inactive: 1.92%
O=[N+]([O-])OCC(CO[N+](=O)[O-])(CO[N+](=O)[O-])CO[N+](=O)[O-],"fluorescence, % of fluorescent control",[1]; at 46 µM (top of the series),inactive: -0.0306%
same,"fluorescence, % of fluorescent control",[1]; at 91.3 µM (top of the series),inactive: -0.0398%
same,"fluorescence, % of fluorescein control",[2]; at 46 µM (top of the series),inactive: -0.0215%
same,"fluorescence, % of fluorescein control",[2]; at 91.3 µM (top of the series),inactive: 0.0172%
same,"fluorescence, % of fluorescent control",[3]; at 46 µM (top of the series),inactive: 0.0932%
same,"fluorescence, % of fluorescent control",[3]; at 91.3 µM (top of the series),inactive: 0.0355%
same,activation,[8]; at 62.4 µM (top of the series),inactive: 0.271% and inactive: 0.409%
same,"activity change, negative = inhibition",[9]; at 58.5 µM (top of the series),inactive: -5.85%
same,"activity change, negative = cytotoxicity",[4]; at 68.4 µM (top of the series),inactive: 4.41%
same,Potency,[5],inactive
same,"activity change, negative = cytotoxicity",[7]; at 58.5 µM (top of the series),inactive: -4.6% and inactive: 10.3%
same,"activity change, negative = inhibition",[10],inactive: 3.32%
N=C(N)N[N+](=O)[O-],"fluorescence, % of fluorescent control",[1]; at 95.7 µM (top of the series),inactive: -0.0927%
same,"fluorescence, % of fluorescein control",[2]; at 95.7 µM (top of the series),inactive: -0.0748%
same,"fluorescence, % of fluorescent control",[3]; at 95.7 µM (top of the series),inactive: -0.0486%
same,activation,[8]; at 79.2 µM (top of the series),inactive: -1.1%
same,"activity change, negative = cytotoxicity",[4]; at 95 µM (top of the series),inactive: 1.16%
same,Potency,[6],inactive
same,"activity change, negative = cytotoxicity",[7]; at 78.9 µM (top of the series),inactive: 6.77%
same,"activity change, negative = inhibition",[10],inactive: 3.8% [at 78.9 µM]
C/C1=C2N=C(/C=C3N=C(/C(C)=C4\[N-][C@@](C)([C@@H]5N=C1[C@](C)(CCC(=O)NC[C@@H](C)OP(=O)([O-])O[C@H]1[C@@H](O)[C@@H](n6cnc7cc(C)c(C)cc76)O[C@@H]1CO)[C@H]5CC(N)=O)[C@@](C)(CC(N)=O)[C@@H]4CCC(N)=O)[C@@](C)(CC(N)=O)[C@@H]\3CCC(N)=O)C(C)(C)[C@@H]/2CCC(N)=O.[C-]#N.[Co+3],"fluorescence, % of fluorescent control",[1]; at 18.6 µM (top of the series),inactive: -0.045%
same,"fluorescence, % of fluorescein control",[2]; at 18.6 µM (top of the series),inactive: 0.0019%
same,"fluorescence, % of fluorescent control",[3]; at 18.6 µM (top of the series),inactive: 0.131%
same,activation,[8]; at 29.2 µM (top of the series),inactive: -0.781%
same,"activity change, negative = inhibition",[9]; at 27 µM (top of the series),inactive: -4.39%
same,"activity change, negative = cytotoxicity",[4]; at 31.4 µM (top of the series),inactive: 9.42%
same,Potency,[5],inactive
same,Potency,[6],inactive
same,"activity change, negative = cytotoxicity",[7]; at 27 µM (top of the series),inactive: -23.3%
Nc1cc([N+](=O)[O-])cc([N+](=O)[O-])c1O,"fluorescence, % of fluorescent control",[1]; at 95.7 µM (top of the series),inactive: -0.932%
same,"fluorescence, % of fluorescein control",[2]; at 95.7 µM (top of the series),inactive: -0.321%
same,"fluorescence, % of fluorescent control",[3]; at 95.7 µM (top of the series),inactive: -0.765%
same,Potency,[5],inactive
same,Potency,[6],inactive
CC(C)OP(C)(=O)OC(C)C,"fluorescence, % of fluorescent control",[1]; at 91.3 µM (top of the series),inactive: -0.0587% and inactive: -0.0378%
same,"fluorescence, % of fluorescein control",[2]; at 91.3 µM (top of the series),inactive: -0.107% and inactive: -0.0484%
same,"fluorescence, % of fluorescent control",[3]; at 91.3 µM (top of the series),inactive: -0.166% and inactive: -0.221%
same,activation,[8]; at 62.4 µM (top of the series),inactive: -1.58% and inactive: -0.799%
same,"activity change, negative = inhibition",[9]; at 58.5 µM (top of the series),inactive: 3.23% and inactive: 4.17%
same,"activity change, negative = cytotoxicity",[4]; at 68.4 µM (top of the series),inactive: -0.72%
same,Potency,[5],inactive
same,Potency,[6],inactive
same,"activity change, negative = cytotoxicity",[7]; at 58.5 µM (top of the series),inactive: 12.1% and inactive: 6.18%
CP(=O)(O)OCCC[Si](O)(O)O,"fluorescence, % of fluorescent control",[1]; at 91.3 µM (top of the series),inactive: 0.0396%
same,"fluorescence, % of fluorescein control",[2]; at 91.3 µM (top of the series),inactive: -0.0128%
same,"fluorescence, % of fluorescent control",[3]; at 91.3 µM (top of the series),inactive: 0.0651%
same,activation,[8]; at 62.4 µM (top of the series),inactive: -2.87%
same,"activity change, negative = inhibition",[9]; at 58.5 µM (top of the series),inactive: -1.3%
same,"activity change, negative = cytotoxicity",[4]; at 68.4 µM (top of the series),inactive: 25.5%
same,Potency,[5],inactive
same,Potency,[6],inactive
same,"activity change, negative = cytotoxicity",[7]; at 58.5 µM (top of the series),inactive: 1.39%
Cc1ccc([N+](=O)[O-])c([N+](=O)[O-])c1,"fluorescence, % of fluorescent control",[1]; at 91.3 µM (top of the series),inactive: 0.0167%
same,"fluorescence, % of fluorescent control",[1]; at 95.7 µM (top of the series),inactive: -0.157%
same,"fluorescence, % of fluorescein control",[2]; at 91.3 µM (top of the series),inactive: 0.0144%
same,"fluorescence, % of fluorescein control",[2]; at 95.7 µM (top of the series),inactive: -0.0052%
same,"fluorescence, % of fluorescent control",[3]; at 91.3 µM (top of the series),inactive: -0.0232%
same,"fluorescence, % of fluorescent control",[3]; at 95.7 µM (top of the series),inactive: -0.403%
same,activation,[8]; at 62.4 µM (top of the series),inactive: -9.97%
same,activation,[8]; at 79.2 µM (top of the series),inactive: -3.79%
same,"activity change, negative = cytotoxicity",[4]; at 68.4 µM (top of the series),inactive: -8.6%
same,Potency,[5],inactive
CCN(CC)CCCl,"fluorescence, % of fluorescent control",[1]; at 95.7 µM (top of the series),inactive: 0.0255%
same,"fluorescence, % of fluorescein control",[2]; at 95.7 µM (top of the series),inactive: -0.0195%
same,"fluorescence, % of fluorescent control",[3]; at 95.7 µM (top of the series),inactive: -0.159%
same,activation,[8]; at 79.2 µM (top of the series),inactive: 0.972%
same,"activity change, negative = inhibition",[9]; at 78.9 µM (top of the series),inactive: 17.8%
same,Potency,[5],active: 8.76 µM
same,Potency,[6],active: 55.3 µM
same,"activity change, negative = cytotoxicity",[7]; at 78.9 µM (top of the series),inactive: -11.6%
same,"activity change, negative = inhibition",[10],inactive: -1.34% [at 78.9 µM]
CCOP(=O)(CC)OCC,"fluorescence, % of fluorescent control",[1]; at 91.3 µM (top of the series),inactive: -0.0053%
same,"fluorescence, % of fluorescein control",[2]; at 91.3 µM (top of the series),inactive: -0.0184%
same,"fluorescence, % of fluorescent control",[3]; at 91.3 µM (top of the series),inactive: 0.121%
same,activation,[8]; at 62.4 µM (top of the series),inactive: 0.943%
same,"activity change, negative = inhibition",[9]; at 58.5 µM (top of the series),inactive: 6.36%
same,"activity change, negative = cytotoxicity",[4]; at 68.4 µM (top of the series),inactive: -0.962%
same,Potency,[5],inactive
same,Potency,[6],inactive
same,"activity change, negative = cytotoxicity",[7]; at 58.5 µM (top of the series),inactive: 4.22%
COc1ccc([N+](=O)[O-])cc1[N+](=O)[O-],"fluorescence, % of fluorescent control",[1]; at 91.3 µM (top of the series),inactive: 0.0998%
same,"fluorescence, % of fluorescein control",[2]; at 91.3 µM (top of the series),inactive: 0.0078%
same,"fluorescence, % of fluorescent control",[3]; at 91.3 µM (top of the series),inactive: 0.134%
same,activation,[8]; at 62.4 µM (top of the series),inactive: -8.47%
same,"activity change, negative = inhibition",[9]; at 58.5 µM (top of the series),inactive: -18.3%
same,Potency,[5],active: 54.5 µM
same,Potency,[6],inactive
same,"activity change, negative = cytotoxicity",[7]; at 58.5 µM (top of the series),inactive: 0.0533%
OCCSCCO,"fluorescence, % of fluorescent control",[1]; at 46 µM (top of the series),inactive: 0.0413%
same,"fluorescence, % of fluorescent control",[1]; at 95.7 µM (top of the series),inactive: -0.0077%
same,"fluorescence, % of fluorescein control",[2]; at 46 µM (top of the series),inactive: 0.0079%
same,"fluorescence, % of fluorescein control",[2]; at 95.7 µM (top of the series),inactive: 0.0071%
same,"fluorescence, % of fluorescent control",[3]; at 46 µM (top of the series),inactive: 0.0321%
same,"fluorescence, % of fluorescent control",[3]; at 95.7 µM (top of the series),inactive: 0.149%
same,activation,[8]; at 62.4 µM (top of the series),inactive: 3.75%
same,activation,[8]; at 79.2 µM (top of the series),inactive: -0.505%
same,"activity change, negative = inhibition",[9]; at 58.5 µM (top of the series),inactive: 4.36%
same,"activity change, negative = inhibition",[9]; at 78.9 µM (top of the series),inactive: -4.36%
same,"activity change, negative = cytotoxicity",[4]; at 68.4 µM (top of the series),inactive: 6.87%
same,"activity change, negative = cytotoxicity",[4]; at 95 µM (top of the series),inactive: 1.55%
same,Potency,[5],inactive
same,Potency,[6],inactive
same,"activity change, negative = cytotoxicity",[7]; at 58.5 µM (top of the series),inactive: -1.87%
same,"activity change, negative = cytotoxicity",[7]; at 78.9 µM (top of the series),inactive: 0.328%
